Target: D(2) dopamine receptor (Rattus norvegicus, UniProt P61169)

Sequences of proteins named here, by UniProt entry; tags and fusion partners are left off.
UniProt P61169, whole entry: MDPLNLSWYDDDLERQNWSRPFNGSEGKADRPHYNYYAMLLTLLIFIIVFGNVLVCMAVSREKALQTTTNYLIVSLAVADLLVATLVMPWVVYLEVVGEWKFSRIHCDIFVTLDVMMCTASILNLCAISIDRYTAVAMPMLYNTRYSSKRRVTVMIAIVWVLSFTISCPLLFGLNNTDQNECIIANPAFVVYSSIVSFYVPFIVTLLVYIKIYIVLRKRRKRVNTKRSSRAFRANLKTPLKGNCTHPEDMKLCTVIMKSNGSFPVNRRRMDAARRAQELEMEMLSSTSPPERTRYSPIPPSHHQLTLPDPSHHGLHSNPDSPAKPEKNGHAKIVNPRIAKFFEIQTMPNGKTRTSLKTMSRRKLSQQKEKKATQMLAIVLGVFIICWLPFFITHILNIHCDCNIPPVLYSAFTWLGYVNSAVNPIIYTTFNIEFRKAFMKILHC

Q: For `CCCN(CCN1CCN(c2ccccc2)CC1)[C@@H]1CCc2c(O)cccc2C1`, which Ki is on record?
A: 26 nM
